# Results reported in publication PMC6139040 (Clinical cancer research : an official journal of the …, 2018).
# Several values for one entry are separate records, joined by “and”; a condition that tells them apart may be missing. Identical values can stand only once.
# Legend:
# K8484 (p53^R172H/+) = assay: Cell growth inhibition; assay type: cell-based, murine; conditions: read-out: EC50 cell growth inhibition; 72 hours, MTS
# p53^R172H tumor tissue = assay: Cleaved caspase-3 IHC of tumor tissue, KPC p53^R172H; assay type: in vivo, KPC mice; conditions: for CC3 staining of treated tumors in comparison to controls: KPC-172 mice, ZMC1 5 mg/kg or Zn-1 5.6 mg/kg IP daily
# [1] = system: KPC-p53^R172H pancreatic tumors; assay: KPC efficacy / survival study, p53^R172H; assay type: in vivo; conditions: for median survival: ZMC1 5 mg/kg or Zn-1 5.6 mg/kg (molar equivalent) IP daily, vehicle 15.5 days; for mice with tumor regressions by ultrasound: ZMC1 5 mg/kg or Zn-1 5.6 mg/kg IP daily
# [2] = system: KPC-p53^R172H tumor tissues; assay: p53 target gene expression in subcutaneous tumors, KPC-p53^R172H; conditions: one dose of ZMC1
Molecule,EC50 (K8484 (p53^R172H/+)),CC3 staining of treated tumors in comparison to controls (p53^R172H tumor tissue),cleaved caspase-3 (CC3) staining versus vehicle control (p53^R172H tumor tissue; four doses of 5 mg/kg),mice with survival more than 26 days ([1]; 5 mg/kg IP daily),"tolerability during efficacy study ([1]; 5 mg/kg IP daily, KPC mice)",median survival [1],mice with tumor regressions by ultrasound [1],"gene expression of Puma, Noxa and p21 in tumor tissue [2]",mice with remarkably good responses ([1]; Zn-1 5.6 mg/kg IP daily),"survival times of the mice with remarkably good responses ([1]; Zn-1 5.6 mg/kg IP daily, 5.6 mg/kg)"
C/C(=N\NC(=S)N1CCC1)c1ccccn1 [ZMC1],600 nM,significantly increased,significantly greater level of staining,4 out of 8,well tolerated,26 days,5/8,increased,–,–
[Zn(ZMC1)2] [Zn-1],–,significantly increased,–,–,–,35 days,7/10,–,2/5,70 days and 81 days
